Protein sequences, listed by entry. Tags and fused reporters are not part of them. Lines headed by an entry give the natural chain unless they say otherwise; changes in a name come on top.
UniProt P54619: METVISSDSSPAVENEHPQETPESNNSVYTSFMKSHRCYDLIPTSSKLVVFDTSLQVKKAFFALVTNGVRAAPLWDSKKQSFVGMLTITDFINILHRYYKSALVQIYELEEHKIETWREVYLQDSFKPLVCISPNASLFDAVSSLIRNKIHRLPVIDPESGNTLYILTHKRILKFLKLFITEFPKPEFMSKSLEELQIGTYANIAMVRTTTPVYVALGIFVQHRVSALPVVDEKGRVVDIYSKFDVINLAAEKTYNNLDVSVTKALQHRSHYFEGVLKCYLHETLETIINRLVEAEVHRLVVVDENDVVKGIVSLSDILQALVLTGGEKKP
UniProt Q13131: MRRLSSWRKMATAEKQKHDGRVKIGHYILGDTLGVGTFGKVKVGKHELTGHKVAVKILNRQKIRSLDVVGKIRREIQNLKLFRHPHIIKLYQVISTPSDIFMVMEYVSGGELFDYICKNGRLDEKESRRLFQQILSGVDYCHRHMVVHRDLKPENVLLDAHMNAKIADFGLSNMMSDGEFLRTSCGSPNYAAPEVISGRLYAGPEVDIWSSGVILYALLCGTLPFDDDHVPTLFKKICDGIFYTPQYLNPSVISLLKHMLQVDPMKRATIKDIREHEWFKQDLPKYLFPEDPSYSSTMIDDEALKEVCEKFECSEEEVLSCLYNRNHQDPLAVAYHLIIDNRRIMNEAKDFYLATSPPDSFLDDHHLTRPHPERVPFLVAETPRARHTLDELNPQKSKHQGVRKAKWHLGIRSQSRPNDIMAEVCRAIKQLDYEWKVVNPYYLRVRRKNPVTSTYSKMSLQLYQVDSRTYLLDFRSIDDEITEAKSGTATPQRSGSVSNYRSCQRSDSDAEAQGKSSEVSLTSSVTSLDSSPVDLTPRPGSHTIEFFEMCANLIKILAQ
UniProt Q9Y478: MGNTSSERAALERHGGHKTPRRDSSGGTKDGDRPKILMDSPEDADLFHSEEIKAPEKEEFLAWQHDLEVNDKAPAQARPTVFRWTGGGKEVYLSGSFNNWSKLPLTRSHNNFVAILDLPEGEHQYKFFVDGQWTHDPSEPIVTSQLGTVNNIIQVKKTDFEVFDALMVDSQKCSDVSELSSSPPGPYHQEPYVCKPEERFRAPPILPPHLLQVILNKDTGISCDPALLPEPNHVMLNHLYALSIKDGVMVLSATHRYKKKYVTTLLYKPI

According to ChEMBL document CHEMBL5729261, “AMPK activators” (2022):

Target: AMP-activated protein kinase (AMPK) alpha-1/beta-1/gamma-1 (Homo sapiens, UniProt P54619+Q13131+Q9Y478)
Test: In Vitro pAMPK1 Kinase Activation Assay: Compound effect on AMPK enzyme activation was determined in a cell-free format with a 12-point concentration curve. The ADP-Glo detection system was used to determine phosphorylation of a SAMS peptide substrate. Recombinant AMPK α1/β1/γ1 complex was pre-activated by phosphorylation with CAMKK2 followed by incubated with compound for 15 minutes prior to the SAMS phosphorylation reaction. Activity curves and EC50 values were fitted by interpolation to an ATP:ADP standard curve as indicated by the ADP-Glo manufacturer using Prism software.
Type: protein-complex assay

- EC50: 1.61 nM
Compound: NC(=O)CN(CCS(=O)(=O)O)C(=O)c1ccc(-c2ccc(-c3nc4nc(O[C@@H]5CO[C@H]6[C@@H]5OC[C@H]6O)[nH]c4cc3Cl)cc2)cc1
